# Assay results taken from patent publication EP0170623B1, “Novel pharmaceutical use of (NVA)2-cyclosporine” (SANDOZ AG, priority 1984, dated 1990).
# Conditions: 100 mg/kg/day in olive oil by stomach tube
substance,measurement,setting,value
(Nva)^2-Cyclosporine,"neurological symptoms, mortality, kidney biochemistry and histology and liver biochemistry, versus Cyclosporine Group 2",Group 1 compared with Group 2 (100 mg/kg Cyclosporine/day),marked superiority in comparison with results obtained for Group 2
same,adverse reaction in respect of other parameters measured,"Group 1 compared with Group 2 (Cyclosporine), body weight, serum and urine analysis etc.",No adverse reaction
